# From PubChem BioAssay AID485317 (Broad Institute, 2010)
# Amino acid sequences for entries named in this document (tags omitted).
# UniProt P55789, whole entry: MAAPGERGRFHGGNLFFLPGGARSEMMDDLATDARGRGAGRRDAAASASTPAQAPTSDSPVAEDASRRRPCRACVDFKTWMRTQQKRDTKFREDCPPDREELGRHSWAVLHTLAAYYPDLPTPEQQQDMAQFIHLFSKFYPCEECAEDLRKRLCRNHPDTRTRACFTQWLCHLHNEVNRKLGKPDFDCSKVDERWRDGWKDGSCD
# This is a selection; strong and weak results do not stand in their true shares. Activity calls are given as the source filed them.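 How the source made its calls: active means mean replicate inhibition above about 79%, with every replicate also reaching it (limit read from the data); inconclusive means only one of the two criteria met; inactive means mean below limit and not every replicate reaching it.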
# Target: FAD-linked sulfhydryl oxidase ALR (Homo sapiens) (UniProt P55789)
# Experiment: ALR-catalysed DTT oxidation blockers – biochemical, H2O2 detection, HRP-luminol luminescence, single point, primary screen (AID 485317)
# Settings: purified ALR, hits give high values, concentration not given here
row,Compound,inhibition
1,O=C(OC1CN2CCC1CC2)C1c2ccccc2C=Cc2ccccc21 (centres undefined),inactive: -20.5%
2,CCc1cc(C(=O)NCC2(N3CCCCC3)CCCCC2)sc1C,inactive: -12.9%
3,CCOC(=O)N1CCC(Nc2ccc(C)cc2)CC1,active: 97.7%
4,N/C(=N\O)c1c(N)no[n+]1[O-],inactive: 2.38%
5,COc1ccc(C(=O)NCC2(N3CCOCC3)CCCCC2)cc1OC,inactive: -12.2%
6,O=C(NCC1(N2CCOCC2)CCCCC1)c1cc(Br)ccc1Cl,inactive: -3.17%
7,CN(C)C1(CNC(=O)c2cccc(C#N)c2)CCCCC1,inactive: 16.4%
8,c1ccc(CN2CCC(Nc3ccccc3)CC2)cc1,active: 89.6%
9,CCCN1CCC(Nc2cc(OC)cc(OC)c2)CC1,inactive: 67.6%
10,N#Cc1ccc(C(=O)NCC2(N3CCCCC3)CCCCC2)cc1,inactive: -0.87%
11,CN(C)c1ccc(C(=O)NCC2(N3CCCCC3)CCCCC2)cc1,active: 93.5%
12,Cc1ccc(C(=O)NCC2(N3CCCCC3)CCCCC2)o1,inactive: -2.46%
13,Fc1ccccc1NC1CCN(Cc2ccccc2)CC1,inactive: 17.1%
14,CN1CCC(Nc2ccc(Cl)cc2)CC1,inactive: 59%
15,CCCOc1ccc(C)cc1CN(CCCl)CCCl,inactive: 35.8%
16,COc1cc(OC)cc(C(=O)NCC2(N3CCOCC3)CCCCC2)c1,inactive: 7.18%
17,COc1cccc(C(=O)N(c2cc(C)cc(C)c2)C2CCN(C(=O)OC(C)(C)C)CC2)c1,inactive: -14.2%
18,CCC(CO)(C(=O)OC1CN2CCC1CC2)c1ccccc1 (centres undefined),inactive: 2.95%
19,CC(C)(C)OC(=O)N1CCC(Nc2ccccc2)CC1,inactive: 52.4%
20,CCCOc1ccc(C(=O)NCC2(N(C)C)CCCCC2)cc1,inactive: -24.4%
21,CCOc1ncccc1C(=O)NCC1(N2CCOCC2)CCCCC1,inactive: -16.7%
22,CN1CCC(Nc2ccc(F)c(Cl)c2)CC1,inactive: 35.4%
23,O=C(OC1CN2CCC1CC2)C1c2ccccc2Oc2ccccc21 (centres undefined),inactive: -30.8%
24,O=C(NCC1(N2CCCCC2)CCCCC1)c1ccc(Cl)s1,inactive: -1.84%
25,N#CC1(Nc2ccccc2)CCN(Cc2ccccc2)CC1,inactive: -3.67%
26,COc1ccc(Cl)cc1C(=O)NCC1(N2CCOCC2)CCCCC1,inactive: -3.59%
27,CCOC(=O)N1CCC(Nc2ccc(OC)cc2)CC1,active: 98.3%
28,O=C(NCC1(N2CCCCC2)CCCCC1)c1ccc(Cl)nc1,inactive: -7.41%
29,Cc1cc(C)cc(N(C(=O)c2ccccc2)C2CCN(C(=O)OC(C)(C)C)CC2)c1,inactive: -7.48%
